Molecules are shown by their SMILES. Bounds are passed on as bounds.

This note sets out measurements from publication PMC3678512, “Synthesis and physicochemical characterization of novel phenotypic probes targeting the nuclear factor-kappa B signaling pathway” (Beilstein Journal of Organic Chemistry, 2013).

Test [1] relates to non-NOD-stimulated NF-κB pathways. The experiment in a line: Non-NOD-stimulated NF-κB pathway reporter assays (TNF-α, doxorubicin, PMA/ionomycin). In kind it is cell-based. The note with it: doxorubicin and PMA/ionomycin reporter assays.
The subject of a further test is NOD2. The experiment in a line: MDP-stimulated signal transduction in NOD2 reporter cell lines. Format: cell-based. Particulars: reporter cell lines with low or overexpressed NOD2.

`Cc1ccc(S(=O)(=O)n2c(N)nc3ccccc32)cc1` [Probe 13]: the “Selectivity over non-NOD-stimulated NF-κB pathways” value in test [1] is listed as “selective”. For the same compound, the “Selectivity for NOD1-dependent over MDP-stimulated (NOD2-dependent) signal transduction” value with NOD2 is given as greater than 40 fold.
